Data on one compound can be found in patent publication US9492510B2, “Composition and method for inhibiting tumor cell growth” (St. Jude Children's Research Hospital, priority 2006, dated 2016).

In assay [1] the test system is U373MG cells. Nature of the assay: Growth inhibition of U373MG cells expressing intracellular or secreted hCE1mut6 by CPT-11. The class given is cell-based, human. Conditions: cells expressing hCE1mut6 (either form). As for the experimental part: Experiments were also performed to determine whether cells expressing a secreted form of hCElm6 (SEQ ID NO:16) produced media that had CE activity.
Growth Inhibition Assays.

For assay [2], the target named is T1, hCE1 variant hCE1m6 (hCE1mut6; L362M, M363L, K459R, F448Y, Q449R, L358I, S364G, Q362 insertion), SEQ ID NO:3 (Homo sapiens, UniProt P23141, F449Y/K460R/L358I/L363M/M364L/Q450R/S365G).
T1 sequence (P23141 18-567 L358I/L363M/M364L/S365G/F449Y/Q450R/K460R): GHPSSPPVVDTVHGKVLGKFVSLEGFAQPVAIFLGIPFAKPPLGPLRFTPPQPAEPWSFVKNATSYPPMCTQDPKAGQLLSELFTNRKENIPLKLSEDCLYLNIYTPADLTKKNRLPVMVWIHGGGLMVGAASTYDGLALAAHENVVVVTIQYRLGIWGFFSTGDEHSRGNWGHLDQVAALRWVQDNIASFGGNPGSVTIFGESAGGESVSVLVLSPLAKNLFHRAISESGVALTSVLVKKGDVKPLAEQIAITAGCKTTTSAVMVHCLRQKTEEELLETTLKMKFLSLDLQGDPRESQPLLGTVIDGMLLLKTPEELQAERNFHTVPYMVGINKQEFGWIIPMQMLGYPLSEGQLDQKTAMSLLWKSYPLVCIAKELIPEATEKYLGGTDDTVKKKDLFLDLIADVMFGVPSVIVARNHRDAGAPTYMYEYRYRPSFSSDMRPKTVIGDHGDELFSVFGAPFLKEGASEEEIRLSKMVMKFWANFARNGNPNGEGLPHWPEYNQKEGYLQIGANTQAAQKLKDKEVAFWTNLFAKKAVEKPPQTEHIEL
Nature of the assay: Kinetics of CPT-11 hydrolysis by purified hCE1m6. The class given is biochemical. Conditions: hCE1m6 vs hCE1. An excerpt: These experiments determined the Km, Vmax, kcat and kcat/Km values for the different enzymes.
Protein Purification. […] For hiCE, an alternative purification procedure was developed using DEAE chromatography and elution with a pH/salt gradient.
Determination of Kinetic Parameters for Substrate Hydrolysis.

For assay [3], the system named is U373MG cells. The note with it: media from secreted hCE1mut6 cells (pIRESmut6C) vs control (pIRESneo).

Take `CCc1c2c(nc3ccc(OC(=O)N4CCC(N5CCCCC5)CC4)cc13)-c1cc3c(c(=O)n1C2)COC(=O)[C@]3(O)CC` [CPT-11, 7-ethyl-10-[4-(1-piperidino)-1-piperidino]carbonyloxycamptothecin]: the “reduction in the IC50 value for CPT-11” value in assay [1] is roughly 130 fold. Further, the “more efficient at CPT-11 hydrolysis as compared to hCE1” value in assay [2] was roughly 70 fold. The “difference in the IC50 values” in assay [3] was “approximately 150 fold”.
